Assay results reported in patent US7884136B2, “Modified-release formulations of a bupropion salt” (Biovail Laboratories International S.R.L., priority 2005, dated 2011).
Like-named read-outs stand apart in the source and are kept apart here.

What was measured:
[1] = Forced degradation stability study of bupropion salts spiked with placebo/excipients, closed vials, 40° C./75% RH, HPLC assay and impurities; settings: for Order of stability (assay) with IPA & EtOH: DS and excipients spiked with IPA & EtOH; for Order of stability (assay) with IPA & EtOH / Order of stability (assay) with water: 32 days, 40° C.; for Order of stability (assay) with water: DS and excipients spiked with water; for Stability in the forced degradation stability studies, overall: DS and spiked DS; for Order of stability (assay, % potency): salt plus excipients, 20 days, closed vial
Experimental: The stability of the salts was evaluated based on the formation of the main degradation products (see below) as determined by HPLC analysis and the % potency (or assay) of the API, after specific time periods in the stability chamber. The effect of the addition of solvents, such as water, ethanol and isopropyl alcohol, was also studied.
The samples of each salt and the spiked salts with the bupropion HCl XL were prepared under the conditions mentioned in Table 4. […] The stability of the bupropion salts were evaluated based on the formation of the main degradation product 3-chlorobenzoic acid (3-CBZ) and the intermediate degradation products diketone 827U76 and the ketohydroxyl derivatives (20U78 and 852U77) (Scheme 2).
As mentioned above, the stability samples were prepared in 2 mL vials and used directly for assay and impurity analysis by HPLC without further sample preparations to minimize errors.

[2] = Thermal analysis by TGA of bupropion salts; type: physicochemical
Experimental: 2-5 mg of each salt was placed in an aluminium pan and covered with its lid. DSC was run for each sample at the rate of 10° C./min (for HBr salt, different rates were used to investigate for polymorphs) from 30° C. to 400° C. TGA was also used for each of the HBr, HCl, maleate and tosylate salts.
The salts were analysed by DSC (at 10° C./min from 30° C. up to 400° C.) and the pH (aq. 0.5%), and the moisture content by KF were also measured. The TGA was performed on the HCl, maleate, tosylate and HBr salts.

[3] = cited from earlier work
[4] = Polyethylene Glycol Alkyl Ethers, as reported by the manufacturer
[5] = PEG-Fatty Acid Monoester Surfactants
[6] = PEG-Sorbitan Fatty Acid Esters, as reported by the manufacturer
[7] = Polyethylene Glycol Alkyl Phenol Surfactants, as reported by the manufacturer

## Bupropion Fumarate
[1]; closed vials
  Order of stability (assay) with IPA & EtOH: HCl>HBr>tosylate>maleate>fumarate
  Order of stability (assay) with water: tosylate>maleate>HCl>HBr>fumarate
[1]; 40° C./75% RH
  Stability in the forced degradation stability studies, overall: neither stable in water nor in the organic solvents IPA & EtOH
  Order of stability (assay, % potency): HBr>HCl=tosylate>fumarate>maleate

## Bupropion maleate
[1]; closed vials
  Order of stability (assay) with IPA & EtOH: HCl>HBr>tosylate>maleate>fumarate
  Order of stability (assay) with water: tosylate>maleate>HCl>HBr>fumarate
[1]; 40° C./75% RH
  Order of stability (assay, % potency): HBr>HCl=tosylate>fumarate>maleate

## Bupropion succinate
[1]; 10 days, 40° C./75% RH, closed vials, with or without excipients
  Stability in the 10 days forced degradation study: not stable
[1]; 40° C./75% RH
  Stability in the forced degradation stability studies, overall: very poor

## Bupropion tosylate
[1]; closed vials
  Order of stability (assay) with IPA & EtOH: HCl>HBr>tosylate>maleate>fumarate
  Order of stability (assay) with water: tosylate>maleate>HCl>HBr>fumarate
[1]; 40° C./75% RH
  Stability in the forced degradation stability studies, overall: good stability
  Order of stability (assay, % potency): HBr>HCl=tosylate>fumarate>maleate
[2]
  TGA: thermal stability: not thermally stable

## PEG-2 cetyl ether
[3]; [4]
  HLB: 5.3

## PEG-2 stearyl ether
[3]; [4]
  HLB: 4.9

## PEG-4 laurate
[3]; [5]
  HLB: 9.3

## PEG-4 sorbitan monostearate
[3]; [6]
  HLB: 9.6

## PEG-6 laurate
[3]; [5]
  HLB: 11.4

## PEG-6 sorbitan tetraoleate
[3]; [6]
  HLB: 8.5

## PEG-10 sorbitan laurate
[3]; [6]
  HLB: >10

## PEG-10-100 nonyl phenol
[3]; [7]
  HLB: >10

## PEG-15-100 octyl phenol ether
[3]; [7]
  HLB: >10

## PEG-40 laurate
[3]; [5]
  HLB: 17.9
